According to PubChem BioAssay AID488927 (Johns Hopkins Ion Channel Center, 2010):
Only a part is listed here, and it is no random draw. Some tests of the compounds listed are not included; inactive here does not mean inactive elsewhere. The source made the active and inactive calls.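 Rule for the calls: active = membrane potential signal moved up or down beyond 5 SD of buffer control wells, in both duplicate plates, actives on both sides; inactive = the rest.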

test system: Transient receptor potential cation channel subfamily C member 4 (mouse); assay: off-target membrane potential effects via mouse TRPC4 – cell-based, HEK293 TRPC4/mu-opioid, membrane potential dye, selectivity assay for TRPC6 modulator project, confirmation (AID 488927); conditions: membrane potential fluorescence, at 10 µM

SMILES | percent of control
CN1[C@@H]2CC[C@H]1CC(OC(=O)C(O)(c1ccccc1)c1ccccc1)C2 (some centres not stated) | active: 9%
CCN(CC)CC(C)C(C)OC(=O)C(O)(c1ccccc1)c1ccccc1 (configuration not stated) | active: 23%
